Our source for the outcome values is PubChem BioAssay AID593 (National Center for Advancing Translational Sciences (NCATS), 2007).

The list shows a part of the results, in another mix than the full data. Some of these compounds have results that are not shown, active ones among them. Inconclusive results are not listed. Calls of active or inactive are those of the source. No stated cut-off is given here; in the data, active means max fluorescein-equivalent concentration above about 10 nM; inconclusive means between about 1.1 nM and that limit; inactive means weaker than that.

This test in a line: qHTS Assay for Spectroscopic Profiling in Fluorescein Spectral Region. The conditions noted are these: Compound autofluorescence, 480/540 nm, fluorescein-equivalent. The source says: NIH Molecular Libraries Screening Centers Network [MLSCN]
NIH Chemical Genomics Center [NCGC]
Occasionally, the artifactual effect may originate from the compound's own spectral or other biophysical properties which generally tend to track its assay concentration. Pre-screening/profiling the library with respect to the compounds' spectral properties should help one exclude false positives early on. While the most informative fluorescent profiling data set is obtained by performing a full excitation and emission scan of each well by using a monochromator-based plate reader, such an approach is practical only on a very limited scale as scanning each well requires long time. An alternative approach, applied here, is to perform plate reader scans using selected excitation and emission wavelength pairs to generate a multidimensional relational database that correlates compound concentration and the respective relative fluorescence intensity at a given wavelength set. A standard curve of fluorescein present on each plate as six-point concentration series, was used to compute a normalized fluorescence response, termed dye-equivalent concentration, for each compound at each concentration.
NCGC Assay Protocol Summary:
100 mM Tris buffer, pH 8.0
The wells in columns 1 through 4 of a Kalypsys polypropylene 1536-well compound plate were filled with standard solutions of fluorophore corresponding to the spectral region of interest. Solutions of Fluorescein were placed in the following wells: Q1, R1: 3 mM, Q2, R2: 300 uM, Q3, R3: 30 uM, Q4, R4: zero (DMSO), S1, T1: 3 uM, S2, T2: 900 nM, S3, T3: 300 nM, S4, T4: zero (DMSO).
Six uL of buffer were dispensed to 1536-well Greiner black plates. Compounds and dye standards (23 nL) were transferred via Kalypsys PinTool. The plates were incubated for 15 min at room temperature, and then read on ViewLux (Perkin-Elmer) High-throughput CCD imager using 480 nm and 540 nm excitation and emission filter set.
Keywords: NIH Roadmap, MLSCN, MLI, MLSMR, qHTS, NCGC, Fluorescein, Fluorescent Profiling.
Consider `CN(C)c1cccc(C(=O)NCC2(N(C)C)CCCCC2)c1`, for which the outcome was inactive.

Regarding `CN1CC[C@H](OC(=O)[C@](O)(c2ccccc2)C2CCCC2)C1`, the result was inactive.

On to `CN1CCC[C@H](OC(=O)[C@](O)(c2ccccc2)C2CCCC2)C1`, for which the outcome was inactive.
